# Assay results taken from patent US4481203A, “Composition containing 1-(n-hexylcarbamoyl)-5-fluorouracil and uracil” (priority 1977, dated 1984).
# Tests used:
# sarcoma 180 [1] = assay: Therapeutic effect on sarcoma 180 transplanted in mice (Table 5); type: in vivo, male mice of ICR strain; conditions: oral, uracil (b)/(a) mol ratio 0, as amount of 5-fluorouracil (a), 14400 min
# Procedure: (5) The anti-cancer compositions of this invention are tested in mice by the following methods to determine acute toxicity, therapeutic effect and theapeutic index.
# Tissues of sarcoma 180, 2×10^6, are subcutaneously transplanted in the back of male mice of ICR strain (6 mice in each group). A 5-fluorouracil (a) and uracil (b) in the proportions listed in Table 5 are suspended in a 5% solution of gum arabic to prepare a suspension. Twenty-four hours after the transplantation and during the following seven consecutive days the suspension is orally given to the animal once every day. On the 10th day after the transplantation, the tumor is removed from the body and weighed to calculate the average weight (T) of the tumors in the group to which the composition has been given and the corresponding weight (C) in the control group to determine the ratio T/C. The effective dose (ED50) for achieving 50% cancer inhibition is determined from the dose-response curve involving the dose and effect (T/C).
# sarcoma 180 [2] = assay: Therapeutic index (LD50/ED50) in mice (Table 5); type: in vivo, male mice of ICR strain; conditions: oral
# Excerpt: The LD50 and ED50 values obtained above are used to determine the therapeutic index (LD50 /ED50).
Structure (SMILES),ED50 (sarcoma 180 [1]),Therapeutic index (LD50/ED50) (sarcoma 180 [2]; uracil (b)/(a) mol ratio 0),Therapeutic index (LD50/ED50) (sarcoma 180 [2]; uracil (b)/(a) mol ratio 2.5)
"CCOCn1cc(F)c(=O)[nH]c1=O [Compound 5, 1-Ethoxymethyl-5-fluorouracil]",112 mg/kg,8.9,17.2
"O=c1[nH]c(=O)n(S(=O)(=O)c2ccccc2)cc1F [Compound 8, 1-Benzenesulfonyl-5-fluorouracil]",,,11.1
"O=c1[nH]cc(F)c(=O)[nH]1 [Compound 1, 5-Fluorouracil]",,6.2,13.5
